In IntAct's records for PubMed 21278383:

B1: Testin (Homo sapiens), Q9UGI8 (parent)
chain: MDLENKVKKMGLGHEQGFGAPCLKCKEKCEGFELHFWRKICRNCKCGQEEHDVLLSNEEDRKVGKLFEDTKYTTLIAKLKSDGIPMYKRNVMILTNPVAAKKNVSINTVTYEWAPPVQNQALARQYMQMLPKEKQPVAGSEGAQYRKKQLAKQLPAHDQDPSKCHELSPREVKEMEQFVKKYKSEALGVGDVKLPCEMDAQGPKQMNIPGGDRSTPAAVGAMEDKSAEHKRTQYSCYCCKLSMKEGDPAIYAERAGYDKLWHPACFVCSTCHELLVDMIYFWKNEKLYCGRHYCDSEKPRCAGCDELIFSNEYTQAENQNWHLKHFCCFDCDSILAGEIYVMVNDKPVCKPCYVKNHAVVCQGCHNAIDPEVQRVTYNNFSWHASTECFLCSCCSKCLIGQKFMPVEGMVFCSVECKKRMS
partner: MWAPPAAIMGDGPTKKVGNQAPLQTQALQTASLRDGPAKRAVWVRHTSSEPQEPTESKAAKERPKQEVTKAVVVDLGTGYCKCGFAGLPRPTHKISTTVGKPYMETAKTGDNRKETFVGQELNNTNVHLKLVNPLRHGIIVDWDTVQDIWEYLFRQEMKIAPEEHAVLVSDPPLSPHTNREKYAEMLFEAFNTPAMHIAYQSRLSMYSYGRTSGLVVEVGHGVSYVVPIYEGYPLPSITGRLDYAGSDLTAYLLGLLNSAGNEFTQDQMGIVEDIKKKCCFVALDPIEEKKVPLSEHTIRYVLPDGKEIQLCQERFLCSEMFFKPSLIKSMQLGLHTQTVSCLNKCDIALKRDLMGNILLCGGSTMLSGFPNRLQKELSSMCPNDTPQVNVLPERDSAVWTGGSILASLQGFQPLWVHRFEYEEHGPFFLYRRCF
B2: Actin-like protein 7A (Homo sapiens), Q9Y615 (parent)
chain: B1 partner
partner: B1 chain

Variants of: B1
Details: with acl7a_human ACTL7A

Variant	effect of a mutation on the interaction
C328A	disrupting interaction strength

Variants of: B2
Details: with tes_human TES

Variant	effect of a mutation on the interaction
A31Y	disrupting interaction strength
A41Y	disrupting interaction strength
